Protein sequences, listed by entry. Tags and fused reporters are not part of them.
UniProt P47746, whole entry: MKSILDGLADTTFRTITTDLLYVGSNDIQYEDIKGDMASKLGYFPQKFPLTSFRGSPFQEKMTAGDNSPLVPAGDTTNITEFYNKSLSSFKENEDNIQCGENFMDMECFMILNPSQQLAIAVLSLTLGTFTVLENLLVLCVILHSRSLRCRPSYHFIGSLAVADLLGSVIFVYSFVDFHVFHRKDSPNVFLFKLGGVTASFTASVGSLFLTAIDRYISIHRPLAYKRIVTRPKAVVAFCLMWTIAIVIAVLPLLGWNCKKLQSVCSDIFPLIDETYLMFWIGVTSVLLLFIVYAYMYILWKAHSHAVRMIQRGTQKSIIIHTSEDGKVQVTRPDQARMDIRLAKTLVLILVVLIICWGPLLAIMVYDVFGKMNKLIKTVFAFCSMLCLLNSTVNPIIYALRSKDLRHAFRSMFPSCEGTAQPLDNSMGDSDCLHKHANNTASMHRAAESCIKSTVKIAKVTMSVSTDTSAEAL

According to US20240358672A1, “APPLICATION OF GENISTEIN AND ITS PHOSPHATE ESTER DERIVATIVE AND PHARMACEUTICAL COMPOSITION COMPRISING THE SAME” (National Taiwan University, priority 2023, published 2024):

Target: CB1 receptor (Mus musculus, UniProt P47746)
Experiment: Confocal co-localization with CB1 receptor in mouse thoracic aorta
Conditions: rimonabant pretreatment 30 min

With `Cc1c(C(=O)NN2CCCCC2)nn(-c2ccc(Cl)cc2Cl)c1-c1ccc(Cl)cc1` [rimonabant] as the compound, how does the “effect on BODIPY517/547-genistein binding and fluorescence” value read?
The value was “reduced BODIPY517/547-genistein binding and fluorescence significantly”.
